Inhibition data for one compound are collected here from ChEMBL document CHEMBL5505991, “Novel sulfonamide-indolinone hybrids targeting mitochondrial respiration of breast cancer cells” (Eur J Med Chem, 2024).

Protein sequences, listed by entry. Tags and fused reporters are not part of them. Lines headed by an entry give the natural chain unless they say otherwise; changes in a name come on top.
UniProt P08069, whole entry, looked up: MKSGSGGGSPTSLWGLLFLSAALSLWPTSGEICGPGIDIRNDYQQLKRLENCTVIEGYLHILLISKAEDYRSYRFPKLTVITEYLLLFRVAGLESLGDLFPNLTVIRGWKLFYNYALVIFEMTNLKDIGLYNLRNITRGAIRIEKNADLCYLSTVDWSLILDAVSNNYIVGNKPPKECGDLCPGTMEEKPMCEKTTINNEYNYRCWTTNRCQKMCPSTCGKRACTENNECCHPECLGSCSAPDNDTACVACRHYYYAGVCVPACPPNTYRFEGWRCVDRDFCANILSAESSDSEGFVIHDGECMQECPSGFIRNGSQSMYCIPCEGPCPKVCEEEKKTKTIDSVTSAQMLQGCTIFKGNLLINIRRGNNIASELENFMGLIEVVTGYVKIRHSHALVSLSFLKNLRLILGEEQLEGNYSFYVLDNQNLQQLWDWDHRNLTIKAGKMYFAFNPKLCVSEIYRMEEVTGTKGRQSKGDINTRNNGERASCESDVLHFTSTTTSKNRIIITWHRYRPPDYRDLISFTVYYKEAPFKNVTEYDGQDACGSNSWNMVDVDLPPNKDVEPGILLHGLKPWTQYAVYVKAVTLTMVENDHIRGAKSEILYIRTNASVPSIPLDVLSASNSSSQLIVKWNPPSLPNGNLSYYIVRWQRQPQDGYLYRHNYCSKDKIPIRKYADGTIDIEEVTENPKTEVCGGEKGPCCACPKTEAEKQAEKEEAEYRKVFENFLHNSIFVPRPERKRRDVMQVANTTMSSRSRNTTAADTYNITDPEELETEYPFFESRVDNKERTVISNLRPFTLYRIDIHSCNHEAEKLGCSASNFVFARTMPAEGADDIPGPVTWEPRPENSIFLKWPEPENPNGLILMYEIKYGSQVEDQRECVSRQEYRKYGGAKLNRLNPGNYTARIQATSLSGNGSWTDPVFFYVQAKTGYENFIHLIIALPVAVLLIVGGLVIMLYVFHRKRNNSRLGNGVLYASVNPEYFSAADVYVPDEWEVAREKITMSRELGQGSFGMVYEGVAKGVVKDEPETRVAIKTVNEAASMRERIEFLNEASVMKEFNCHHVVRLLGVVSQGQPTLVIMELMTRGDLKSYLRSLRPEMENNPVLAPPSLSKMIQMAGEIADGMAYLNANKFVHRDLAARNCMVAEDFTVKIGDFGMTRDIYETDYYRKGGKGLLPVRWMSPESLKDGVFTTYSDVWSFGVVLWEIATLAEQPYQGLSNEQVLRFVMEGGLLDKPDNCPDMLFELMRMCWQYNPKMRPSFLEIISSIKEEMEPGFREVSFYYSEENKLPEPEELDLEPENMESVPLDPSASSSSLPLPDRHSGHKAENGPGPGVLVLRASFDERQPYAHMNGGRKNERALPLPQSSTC
UniProt P23458: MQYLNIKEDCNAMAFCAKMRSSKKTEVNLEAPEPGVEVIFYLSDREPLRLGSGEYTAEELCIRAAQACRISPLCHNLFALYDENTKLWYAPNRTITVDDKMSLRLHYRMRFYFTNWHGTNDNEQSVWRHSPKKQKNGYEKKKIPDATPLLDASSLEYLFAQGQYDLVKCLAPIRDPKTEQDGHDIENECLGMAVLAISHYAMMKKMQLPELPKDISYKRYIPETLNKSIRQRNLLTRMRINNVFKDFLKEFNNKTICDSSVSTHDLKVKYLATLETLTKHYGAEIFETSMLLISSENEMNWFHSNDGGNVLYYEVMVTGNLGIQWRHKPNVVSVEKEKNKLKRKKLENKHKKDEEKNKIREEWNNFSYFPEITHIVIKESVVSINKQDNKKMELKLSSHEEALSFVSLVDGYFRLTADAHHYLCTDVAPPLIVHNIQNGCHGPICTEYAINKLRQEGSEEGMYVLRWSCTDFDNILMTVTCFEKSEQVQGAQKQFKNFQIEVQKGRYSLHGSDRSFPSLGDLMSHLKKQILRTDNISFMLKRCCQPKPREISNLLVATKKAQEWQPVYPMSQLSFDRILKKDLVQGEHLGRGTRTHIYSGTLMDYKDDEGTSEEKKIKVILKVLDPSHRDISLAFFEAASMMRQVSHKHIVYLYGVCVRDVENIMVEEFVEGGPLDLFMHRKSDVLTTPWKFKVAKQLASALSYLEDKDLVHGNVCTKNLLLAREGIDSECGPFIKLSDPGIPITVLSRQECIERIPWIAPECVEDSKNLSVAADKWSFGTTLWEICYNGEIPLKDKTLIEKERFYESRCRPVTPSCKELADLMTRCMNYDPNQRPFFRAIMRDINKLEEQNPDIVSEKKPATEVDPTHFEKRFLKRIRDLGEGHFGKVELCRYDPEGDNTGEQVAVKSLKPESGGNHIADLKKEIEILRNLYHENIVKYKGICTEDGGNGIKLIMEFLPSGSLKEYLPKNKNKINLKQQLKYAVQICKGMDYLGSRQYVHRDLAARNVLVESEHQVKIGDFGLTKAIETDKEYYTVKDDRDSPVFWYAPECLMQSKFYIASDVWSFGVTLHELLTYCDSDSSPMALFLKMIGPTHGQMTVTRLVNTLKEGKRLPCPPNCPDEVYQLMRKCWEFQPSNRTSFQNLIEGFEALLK
UniProt P35968, whole entry: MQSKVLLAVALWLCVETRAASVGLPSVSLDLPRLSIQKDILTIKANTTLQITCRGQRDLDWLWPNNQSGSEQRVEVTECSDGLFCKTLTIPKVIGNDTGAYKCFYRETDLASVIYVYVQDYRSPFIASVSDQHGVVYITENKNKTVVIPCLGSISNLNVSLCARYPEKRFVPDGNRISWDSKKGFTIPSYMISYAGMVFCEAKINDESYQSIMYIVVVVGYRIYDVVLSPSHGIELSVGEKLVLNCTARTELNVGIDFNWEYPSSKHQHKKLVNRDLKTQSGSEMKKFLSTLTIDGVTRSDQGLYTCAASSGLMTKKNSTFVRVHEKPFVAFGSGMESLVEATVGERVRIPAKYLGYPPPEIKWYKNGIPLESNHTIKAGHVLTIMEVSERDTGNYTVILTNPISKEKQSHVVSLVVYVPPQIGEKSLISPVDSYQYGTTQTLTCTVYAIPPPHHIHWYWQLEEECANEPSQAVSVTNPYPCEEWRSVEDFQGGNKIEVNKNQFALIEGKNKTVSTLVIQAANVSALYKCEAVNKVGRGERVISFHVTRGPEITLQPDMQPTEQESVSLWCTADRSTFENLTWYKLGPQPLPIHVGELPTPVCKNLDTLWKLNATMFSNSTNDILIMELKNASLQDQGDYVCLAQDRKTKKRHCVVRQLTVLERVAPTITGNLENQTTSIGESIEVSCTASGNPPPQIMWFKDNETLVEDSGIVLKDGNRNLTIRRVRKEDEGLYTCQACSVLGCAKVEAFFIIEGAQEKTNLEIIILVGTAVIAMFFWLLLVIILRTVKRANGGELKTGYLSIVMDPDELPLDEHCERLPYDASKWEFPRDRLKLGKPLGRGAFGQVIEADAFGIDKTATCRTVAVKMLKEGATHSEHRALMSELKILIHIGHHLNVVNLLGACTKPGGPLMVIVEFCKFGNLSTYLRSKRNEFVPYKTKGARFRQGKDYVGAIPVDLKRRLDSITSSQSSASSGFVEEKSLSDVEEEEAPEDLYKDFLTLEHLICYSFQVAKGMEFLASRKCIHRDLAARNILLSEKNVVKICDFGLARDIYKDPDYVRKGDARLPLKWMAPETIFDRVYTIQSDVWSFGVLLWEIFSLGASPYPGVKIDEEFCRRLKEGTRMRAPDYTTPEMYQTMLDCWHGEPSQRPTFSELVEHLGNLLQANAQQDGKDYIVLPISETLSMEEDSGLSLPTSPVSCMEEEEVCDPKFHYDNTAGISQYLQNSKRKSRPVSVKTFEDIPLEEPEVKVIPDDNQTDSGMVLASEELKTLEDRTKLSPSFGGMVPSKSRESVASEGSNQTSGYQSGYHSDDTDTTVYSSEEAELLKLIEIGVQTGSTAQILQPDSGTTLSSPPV
UniProt P11362, whole entry, looked up: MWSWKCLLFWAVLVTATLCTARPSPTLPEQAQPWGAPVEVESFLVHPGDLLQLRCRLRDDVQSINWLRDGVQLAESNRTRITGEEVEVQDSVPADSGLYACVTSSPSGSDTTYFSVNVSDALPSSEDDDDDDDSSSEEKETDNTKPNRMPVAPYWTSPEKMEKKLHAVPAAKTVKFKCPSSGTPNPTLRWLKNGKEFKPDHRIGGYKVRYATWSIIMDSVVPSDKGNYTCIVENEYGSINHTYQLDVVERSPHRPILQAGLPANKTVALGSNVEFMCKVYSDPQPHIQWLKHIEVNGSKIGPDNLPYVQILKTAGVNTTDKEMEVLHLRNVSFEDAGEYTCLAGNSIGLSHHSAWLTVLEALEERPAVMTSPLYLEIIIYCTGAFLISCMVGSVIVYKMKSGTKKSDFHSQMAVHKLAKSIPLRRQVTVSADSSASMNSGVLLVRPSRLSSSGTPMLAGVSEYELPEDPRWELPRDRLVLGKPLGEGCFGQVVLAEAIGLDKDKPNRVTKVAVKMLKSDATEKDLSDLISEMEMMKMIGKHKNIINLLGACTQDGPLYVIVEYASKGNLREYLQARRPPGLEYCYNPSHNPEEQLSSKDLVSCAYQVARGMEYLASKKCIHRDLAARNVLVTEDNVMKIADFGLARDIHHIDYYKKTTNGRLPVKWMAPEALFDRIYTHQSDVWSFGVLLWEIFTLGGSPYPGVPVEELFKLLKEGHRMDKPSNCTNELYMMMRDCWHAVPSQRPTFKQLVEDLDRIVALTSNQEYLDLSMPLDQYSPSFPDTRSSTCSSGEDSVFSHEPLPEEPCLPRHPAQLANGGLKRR
UniProt P11802: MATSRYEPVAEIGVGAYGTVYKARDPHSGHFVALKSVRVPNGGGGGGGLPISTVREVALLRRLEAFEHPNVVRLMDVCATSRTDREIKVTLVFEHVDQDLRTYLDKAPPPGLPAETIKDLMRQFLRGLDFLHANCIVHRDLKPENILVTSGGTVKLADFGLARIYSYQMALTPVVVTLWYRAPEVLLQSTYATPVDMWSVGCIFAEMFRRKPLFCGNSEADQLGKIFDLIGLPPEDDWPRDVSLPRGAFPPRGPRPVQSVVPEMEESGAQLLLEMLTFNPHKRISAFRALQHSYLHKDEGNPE
UniProt P24385: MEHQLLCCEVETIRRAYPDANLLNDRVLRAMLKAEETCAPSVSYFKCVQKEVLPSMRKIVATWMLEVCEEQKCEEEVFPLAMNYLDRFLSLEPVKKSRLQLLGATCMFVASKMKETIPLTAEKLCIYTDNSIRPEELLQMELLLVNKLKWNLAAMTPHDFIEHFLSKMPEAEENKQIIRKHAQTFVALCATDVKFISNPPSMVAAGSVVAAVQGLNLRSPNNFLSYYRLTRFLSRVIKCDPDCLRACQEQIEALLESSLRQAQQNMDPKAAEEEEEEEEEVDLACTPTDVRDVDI
UniProt P16234: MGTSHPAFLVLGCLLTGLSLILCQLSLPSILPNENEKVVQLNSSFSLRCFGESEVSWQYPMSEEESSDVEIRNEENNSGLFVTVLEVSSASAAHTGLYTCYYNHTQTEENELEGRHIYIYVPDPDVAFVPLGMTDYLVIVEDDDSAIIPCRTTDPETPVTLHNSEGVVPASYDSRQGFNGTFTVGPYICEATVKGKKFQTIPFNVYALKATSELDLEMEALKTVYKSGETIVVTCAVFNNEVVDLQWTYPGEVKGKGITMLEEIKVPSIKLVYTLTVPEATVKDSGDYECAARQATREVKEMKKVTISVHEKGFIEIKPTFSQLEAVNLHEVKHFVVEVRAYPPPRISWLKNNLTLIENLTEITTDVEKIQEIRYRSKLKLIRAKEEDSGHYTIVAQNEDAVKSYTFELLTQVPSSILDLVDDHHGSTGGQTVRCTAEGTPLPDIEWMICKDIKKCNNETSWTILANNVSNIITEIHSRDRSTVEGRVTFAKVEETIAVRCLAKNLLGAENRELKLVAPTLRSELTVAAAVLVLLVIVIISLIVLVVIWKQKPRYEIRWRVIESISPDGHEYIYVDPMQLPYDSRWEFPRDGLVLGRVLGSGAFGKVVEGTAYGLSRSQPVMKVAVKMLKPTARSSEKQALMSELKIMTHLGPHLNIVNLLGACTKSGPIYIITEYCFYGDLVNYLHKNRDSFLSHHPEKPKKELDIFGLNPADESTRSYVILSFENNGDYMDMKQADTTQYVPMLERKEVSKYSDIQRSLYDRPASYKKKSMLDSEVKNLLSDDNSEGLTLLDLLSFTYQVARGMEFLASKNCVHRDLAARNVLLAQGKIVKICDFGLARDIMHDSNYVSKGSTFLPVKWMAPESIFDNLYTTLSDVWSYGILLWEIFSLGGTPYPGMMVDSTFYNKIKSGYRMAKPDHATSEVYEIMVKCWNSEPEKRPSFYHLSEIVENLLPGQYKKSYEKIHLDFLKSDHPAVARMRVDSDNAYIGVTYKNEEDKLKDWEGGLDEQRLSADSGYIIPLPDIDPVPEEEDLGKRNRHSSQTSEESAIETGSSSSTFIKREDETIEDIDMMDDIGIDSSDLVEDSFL

The target of assay [1] is Platelet-derived growth factor receptor beta (Homo sapiens) (UniProt P09619). Briefly: Inhibition of PDGFRbeta (unknown origin) at 1 uM by Z-LYTE assay relative to control.
In assay [2] the target is Serine/threonine-protein kinase mTOR (Homo sapiens) (UniProt P42345). Briefly: Inhibition of mTOR (unknown origin) at 1 uM by Z-LYTE assay relative to control.
In assay [3] the target is Insulin-like growth factor 1 receptor (Homo sapiens) (UniProt P08069). As to the kind of experiment: Inhibition of IGF1R (unknown origin) at 1 uM by Z-LYTE assay relative to control.
Assay [4] has as its target Proto-oncogene tyrosine-protein kinase Src (Homo sapiens) (UniProt P12931). Briefly: Inhibition of SRC (unknown origin) at 1 uM by Z-LYTE assay relative to control.
Assay [5] deals with Tyrosine-protein kinase JAK1 (Homo sapiens) (UniProt P23458). Briefly: Inhibition of JAK1 (unknown origin) at 1 uM by Z-LYTE assay relative to control.
Assay [6] has as its target Serine/threonine-protein kinase PAK 1 (Homo sapiens) (UniProt Q13153). As to the kind of experiment: Inhibition of PAK1 (unknown origin) at 1 uM by Z-LYTE assay relative to control.
In assay [7] the target is Vascular endothelial growth factor receptor 2 (Homo sapiens) (UniProt P35968). Briefly: Inhibition of VEGFR2 (unknown origin) at 1 uM by Z-LYTE assay relative to control.
Assay [8] deals with Interleukin-1 receptor-associated kinase 4 (Homo sapiens) (UniProt Q9NWZ3). As to the kind of experiment: Inhibition of IRAK4 (unknown origin) at 1 uM by Z-LYTE assay relative to control.
Assay [9] addresses Fibroblast growth factor receptor 1 (Homo sapiens) (UniProt P11362). As to the kind of experiment: Inhibition of FGFR1 (unknown origin) at 1 uM by Z-LYTE assay relative to control.
Assay [10] addresses Hepatocyte growth factor receptor (Homo sapiens) (UniProt P08581). As to the kind of experiment: Inhibition of MET (unknown origin) at 1 uM by Z-LYTE assay relative to control.
Assay [11] deals with Cyclin-dependent kinase 4/cyclin D1 (Homo sapiens) (UniProt P11802+P24385). Briefly: Inhibition of CDK4/Cyclin D1 (unknown origin) at 1 uM by adapta relative to control. The format is protein-complex assay.
For assay [12], the target named is Tyrosine-protein kinase Lyn (Homo sapiens) (UniProt P07948). As to the kind of experiment: Inhibition of LYNa (unknown origin) at 1 uM by Z-LYTE assay relative to control.
Assay [13] addresses T1, Tyrosine-protein kinase receptor UFO (Homo sapiens) (UniProt P30530).
T1 sequence (whole entry): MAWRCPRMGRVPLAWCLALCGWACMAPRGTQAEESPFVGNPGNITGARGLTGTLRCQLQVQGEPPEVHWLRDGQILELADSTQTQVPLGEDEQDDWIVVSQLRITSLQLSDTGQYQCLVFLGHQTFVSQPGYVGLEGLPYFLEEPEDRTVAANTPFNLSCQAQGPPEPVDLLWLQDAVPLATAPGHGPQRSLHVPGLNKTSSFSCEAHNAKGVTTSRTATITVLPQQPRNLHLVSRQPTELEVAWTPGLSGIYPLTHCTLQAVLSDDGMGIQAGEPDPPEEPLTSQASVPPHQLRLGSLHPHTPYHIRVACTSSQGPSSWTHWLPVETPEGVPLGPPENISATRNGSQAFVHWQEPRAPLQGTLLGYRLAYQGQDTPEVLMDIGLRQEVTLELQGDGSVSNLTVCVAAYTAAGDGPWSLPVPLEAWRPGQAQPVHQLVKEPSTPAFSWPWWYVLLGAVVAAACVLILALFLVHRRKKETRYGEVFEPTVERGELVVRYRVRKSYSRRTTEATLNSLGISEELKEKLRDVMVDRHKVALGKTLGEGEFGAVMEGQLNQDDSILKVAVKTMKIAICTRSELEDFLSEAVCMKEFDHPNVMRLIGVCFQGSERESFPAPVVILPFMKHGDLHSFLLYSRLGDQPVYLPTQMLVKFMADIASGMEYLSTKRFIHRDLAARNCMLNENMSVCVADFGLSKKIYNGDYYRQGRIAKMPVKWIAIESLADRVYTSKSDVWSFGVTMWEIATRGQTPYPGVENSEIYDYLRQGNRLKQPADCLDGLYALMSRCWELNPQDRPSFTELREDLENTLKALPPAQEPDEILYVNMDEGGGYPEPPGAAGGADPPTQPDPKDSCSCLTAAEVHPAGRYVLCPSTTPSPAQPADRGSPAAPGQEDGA
As to the kind of experiment: Inhibition of AXL (unknown origin) at 1 uM by Z-LYTE assay relative to control.

The target of assay [14] is Platelet-derived growth factor receptor alpha (Homo sapiens) (UniProt P16234). As to the kind of experiment: Inhibition of PDGFRalpha (unknown origin) at 1 uM by Adapta assay relative to control.
The target of assay [15] is T2, Dual specificity protein kinase TTK (Homo sapiens) (UniProt P33981).
T2 sequence (whole entry): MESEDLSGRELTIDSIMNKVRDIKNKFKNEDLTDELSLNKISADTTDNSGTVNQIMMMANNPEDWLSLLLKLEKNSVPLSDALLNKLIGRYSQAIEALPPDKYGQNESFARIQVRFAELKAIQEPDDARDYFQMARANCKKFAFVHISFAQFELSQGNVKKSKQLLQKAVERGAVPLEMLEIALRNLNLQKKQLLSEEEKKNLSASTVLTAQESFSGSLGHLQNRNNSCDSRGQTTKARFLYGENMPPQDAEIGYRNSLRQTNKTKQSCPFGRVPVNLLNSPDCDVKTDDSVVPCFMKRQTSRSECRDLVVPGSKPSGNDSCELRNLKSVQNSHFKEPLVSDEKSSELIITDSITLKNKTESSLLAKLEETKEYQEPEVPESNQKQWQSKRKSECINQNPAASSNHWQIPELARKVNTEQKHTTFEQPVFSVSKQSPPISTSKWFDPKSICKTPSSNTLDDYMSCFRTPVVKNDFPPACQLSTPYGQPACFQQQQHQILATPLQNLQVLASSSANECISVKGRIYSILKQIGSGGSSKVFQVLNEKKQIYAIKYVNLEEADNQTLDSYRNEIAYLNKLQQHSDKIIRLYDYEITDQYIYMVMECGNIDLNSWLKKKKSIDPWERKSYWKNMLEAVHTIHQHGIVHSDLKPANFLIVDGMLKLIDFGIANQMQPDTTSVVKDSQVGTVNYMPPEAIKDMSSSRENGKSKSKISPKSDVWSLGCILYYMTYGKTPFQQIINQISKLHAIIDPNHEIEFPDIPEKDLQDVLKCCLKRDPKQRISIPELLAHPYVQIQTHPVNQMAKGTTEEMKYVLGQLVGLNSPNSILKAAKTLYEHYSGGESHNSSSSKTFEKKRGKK
Briefly: Inhibition of TTK (unknown origin) at 1 uM by Lanthascreen assay relative to control. (Time-resolved FRET reads energy transfer from a long-lived donor to a nearby acceptor.)

A word on the inhibition: it is the drop in the measured response relative to a control, in per cent. In the case of `O=C1Nc2cc(-c3ccc(NS(=O)(=O)c4ccc(F)c(Cl)c4)cc3)ccc2/C1=C/c1ccc[nH]1`, the inhibition in [1] was 49%; in assay [2] it was -1%; in [3], -1%; in assay [4], 8%; in assay [5], 1%; in assay [6], 20%. The inhibition is 21% in [7]; 0% in assay [8]; 22% in assay [9]; 11% in assay [10]; -6% in [11]; 10% in [12]. In addition, the inhibition in assay [13] was 3%; in [14] it was -3%; in assay [15], 13%.
